Literature values, collected in US5762960A (Trustees of Tufts College, priority 1996, dated 1998).

Legend:
[1] = cited from earlier work
[2] = tested on: norepinephrine uptake; set-up: Amine Uptakes Blocking Activity Norepinephrine: key to the marks not given beside the values; conditions: cited from earlier work
[3] = tested on: serotonin uptake; set-up: Amine Uptakes Blocking Activity Serotonin: key to the marks not given beside the values; conditions: cited from earlier work
[4] = in words, text commenting on Table 6

## CNCCC=C1c2ccccc2CCc2ccccc21 [Nortriptyline, 3-(10,11-Dihydro-5H-dibenzo[a,d]cyclohepten-5-ylidene)-N-methyl-1-propamine]
[1]; Table 3
  Therapeutic plasma level: 50 to 150 ng/mL
[1]; Table 6
  Therapeutic plasma level: 50 to 150 ng/mL
[2]; Table 3
  Amine Uptakes Blocking Activity Norepinephrine: ++
[2]; [4]
  Interaction and blocking activity at the norepinephrine receptor site: modest or slight
[3]; Table 3
  Amine Uptakes Blocking Activity Serotonin: +++
[3]; [4]
  Activity at the serotonin receptor site in-vivo: highest or very highest

Read-outs that look alike come from different tables or passages of the source.
